Measurements from ChEMBL document CHEMBL4699451, “Discovery of BIIB068: A Selective, Potent, Reversible Bruton's Tyrosine Kinase Inhibitor as an Orally Efficacious Agent for Autoimmune Diseases” (J Med Chem, 2020).

Amino acid sequences for entries named in this document (tags omitted). A change or cut given only in a name is not applied to a line headed by its entry.
UniProt Q9BVS4: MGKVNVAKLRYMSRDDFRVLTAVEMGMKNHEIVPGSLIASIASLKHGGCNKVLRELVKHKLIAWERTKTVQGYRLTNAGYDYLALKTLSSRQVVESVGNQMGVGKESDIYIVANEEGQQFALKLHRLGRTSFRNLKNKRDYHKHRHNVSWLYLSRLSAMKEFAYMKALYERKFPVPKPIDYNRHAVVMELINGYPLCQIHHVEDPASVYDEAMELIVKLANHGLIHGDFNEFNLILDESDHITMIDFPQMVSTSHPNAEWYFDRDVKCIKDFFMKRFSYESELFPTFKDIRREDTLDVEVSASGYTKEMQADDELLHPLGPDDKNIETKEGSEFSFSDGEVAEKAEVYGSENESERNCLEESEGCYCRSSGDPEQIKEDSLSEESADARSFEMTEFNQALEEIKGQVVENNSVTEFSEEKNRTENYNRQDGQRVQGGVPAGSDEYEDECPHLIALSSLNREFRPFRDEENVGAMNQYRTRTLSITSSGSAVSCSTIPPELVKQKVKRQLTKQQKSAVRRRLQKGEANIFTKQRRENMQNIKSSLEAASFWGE
UniProt Q2M2I8: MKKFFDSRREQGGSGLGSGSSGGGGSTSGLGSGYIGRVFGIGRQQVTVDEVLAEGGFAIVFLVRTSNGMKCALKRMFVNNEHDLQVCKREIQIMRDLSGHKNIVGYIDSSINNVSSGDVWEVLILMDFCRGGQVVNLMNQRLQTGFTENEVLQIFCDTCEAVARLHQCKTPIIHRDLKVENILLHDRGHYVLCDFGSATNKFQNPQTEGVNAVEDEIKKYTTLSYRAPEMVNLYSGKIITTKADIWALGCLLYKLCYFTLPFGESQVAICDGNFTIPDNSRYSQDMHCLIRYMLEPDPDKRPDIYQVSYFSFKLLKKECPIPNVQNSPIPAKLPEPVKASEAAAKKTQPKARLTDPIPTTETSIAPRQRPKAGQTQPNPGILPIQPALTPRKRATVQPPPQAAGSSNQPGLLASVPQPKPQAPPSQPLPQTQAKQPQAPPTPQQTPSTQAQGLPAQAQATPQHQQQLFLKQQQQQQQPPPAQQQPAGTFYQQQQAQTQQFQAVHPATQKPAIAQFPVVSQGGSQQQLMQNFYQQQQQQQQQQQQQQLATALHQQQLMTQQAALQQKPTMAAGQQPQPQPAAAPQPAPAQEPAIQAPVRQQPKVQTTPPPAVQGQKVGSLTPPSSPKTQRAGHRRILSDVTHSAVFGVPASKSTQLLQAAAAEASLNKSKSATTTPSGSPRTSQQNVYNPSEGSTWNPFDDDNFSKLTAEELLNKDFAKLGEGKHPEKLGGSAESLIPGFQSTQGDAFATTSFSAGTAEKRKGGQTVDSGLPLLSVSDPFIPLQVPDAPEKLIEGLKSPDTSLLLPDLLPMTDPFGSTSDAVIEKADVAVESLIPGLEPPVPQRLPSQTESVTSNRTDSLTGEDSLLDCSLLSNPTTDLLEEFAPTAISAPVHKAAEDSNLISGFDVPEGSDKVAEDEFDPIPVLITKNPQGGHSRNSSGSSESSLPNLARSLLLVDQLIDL
UniProt Q9NSY1, whole entry, looked up: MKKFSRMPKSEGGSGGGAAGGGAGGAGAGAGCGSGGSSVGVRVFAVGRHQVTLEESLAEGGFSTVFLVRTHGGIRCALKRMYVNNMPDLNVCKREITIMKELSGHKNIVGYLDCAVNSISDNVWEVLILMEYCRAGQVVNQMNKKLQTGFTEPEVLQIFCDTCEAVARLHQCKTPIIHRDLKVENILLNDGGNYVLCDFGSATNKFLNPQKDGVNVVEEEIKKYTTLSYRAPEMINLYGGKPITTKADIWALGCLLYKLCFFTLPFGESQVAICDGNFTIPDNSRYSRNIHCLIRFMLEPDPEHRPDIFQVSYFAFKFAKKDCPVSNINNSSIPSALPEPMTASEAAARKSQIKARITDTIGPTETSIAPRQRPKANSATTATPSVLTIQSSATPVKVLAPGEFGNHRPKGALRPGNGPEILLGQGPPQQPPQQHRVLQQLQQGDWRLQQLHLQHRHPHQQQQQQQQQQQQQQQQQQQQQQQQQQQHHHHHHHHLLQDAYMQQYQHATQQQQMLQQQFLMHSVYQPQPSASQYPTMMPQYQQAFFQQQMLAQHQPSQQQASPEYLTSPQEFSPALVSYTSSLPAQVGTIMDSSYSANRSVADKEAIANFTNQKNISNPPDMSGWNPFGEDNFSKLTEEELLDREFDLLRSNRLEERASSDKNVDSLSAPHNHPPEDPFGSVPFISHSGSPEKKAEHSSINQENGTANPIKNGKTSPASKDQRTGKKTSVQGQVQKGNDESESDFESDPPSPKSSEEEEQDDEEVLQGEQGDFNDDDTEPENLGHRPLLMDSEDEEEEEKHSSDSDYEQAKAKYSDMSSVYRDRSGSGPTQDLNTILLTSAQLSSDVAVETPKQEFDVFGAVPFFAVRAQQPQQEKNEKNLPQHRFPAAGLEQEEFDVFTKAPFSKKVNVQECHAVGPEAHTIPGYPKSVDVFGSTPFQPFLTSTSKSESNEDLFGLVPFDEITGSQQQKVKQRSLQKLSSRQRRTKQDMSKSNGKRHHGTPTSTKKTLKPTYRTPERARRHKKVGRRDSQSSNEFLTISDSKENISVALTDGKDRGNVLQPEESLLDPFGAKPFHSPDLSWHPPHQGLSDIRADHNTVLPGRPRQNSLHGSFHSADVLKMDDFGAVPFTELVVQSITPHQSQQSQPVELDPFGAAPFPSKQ
UniProt O60674: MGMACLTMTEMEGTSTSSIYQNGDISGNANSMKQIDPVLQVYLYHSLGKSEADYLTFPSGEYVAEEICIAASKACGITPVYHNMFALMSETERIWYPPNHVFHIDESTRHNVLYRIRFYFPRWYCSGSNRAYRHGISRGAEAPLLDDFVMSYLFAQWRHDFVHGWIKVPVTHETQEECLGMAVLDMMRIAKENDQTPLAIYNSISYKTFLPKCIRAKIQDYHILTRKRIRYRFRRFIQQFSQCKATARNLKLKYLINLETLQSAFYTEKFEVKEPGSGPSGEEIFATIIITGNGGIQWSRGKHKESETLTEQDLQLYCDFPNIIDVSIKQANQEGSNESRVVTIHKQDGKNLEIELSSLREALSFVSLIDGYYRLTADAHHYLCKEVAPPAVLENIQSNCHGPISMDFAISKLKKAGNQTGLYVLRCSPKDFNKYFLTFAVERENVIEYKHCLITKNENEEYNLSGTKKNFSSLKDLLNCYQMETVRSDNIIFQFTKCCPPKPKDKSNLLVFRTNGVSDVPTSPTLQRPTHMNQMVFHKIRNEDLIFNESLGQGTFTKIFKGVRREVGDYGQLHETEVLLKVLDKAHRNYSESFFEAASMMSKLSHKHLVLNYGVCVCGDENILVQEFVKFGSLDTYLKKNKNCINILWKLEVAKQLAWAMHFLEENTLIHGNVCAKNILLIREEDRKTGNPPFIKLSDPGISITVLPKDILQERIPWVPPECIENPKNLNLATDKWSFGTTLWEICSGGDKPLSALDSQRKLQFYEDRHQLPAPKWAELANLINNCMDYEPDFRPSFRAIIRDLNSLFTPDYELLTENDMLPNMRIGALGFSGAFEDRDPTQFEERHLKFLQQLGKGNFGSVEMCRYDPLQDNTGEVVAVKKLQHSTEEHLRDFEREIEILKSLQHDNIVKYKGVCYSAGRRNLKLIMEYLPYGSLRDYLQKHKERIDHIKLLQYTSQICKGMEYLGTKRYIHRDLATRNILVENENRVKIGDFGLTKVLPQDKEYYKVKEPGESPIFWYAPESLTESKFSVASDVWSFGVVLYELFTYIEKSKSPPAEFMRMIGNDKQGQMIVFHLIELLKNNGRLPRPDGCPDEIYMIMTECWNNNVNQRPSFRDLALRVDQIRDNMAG
UniProt Q99755: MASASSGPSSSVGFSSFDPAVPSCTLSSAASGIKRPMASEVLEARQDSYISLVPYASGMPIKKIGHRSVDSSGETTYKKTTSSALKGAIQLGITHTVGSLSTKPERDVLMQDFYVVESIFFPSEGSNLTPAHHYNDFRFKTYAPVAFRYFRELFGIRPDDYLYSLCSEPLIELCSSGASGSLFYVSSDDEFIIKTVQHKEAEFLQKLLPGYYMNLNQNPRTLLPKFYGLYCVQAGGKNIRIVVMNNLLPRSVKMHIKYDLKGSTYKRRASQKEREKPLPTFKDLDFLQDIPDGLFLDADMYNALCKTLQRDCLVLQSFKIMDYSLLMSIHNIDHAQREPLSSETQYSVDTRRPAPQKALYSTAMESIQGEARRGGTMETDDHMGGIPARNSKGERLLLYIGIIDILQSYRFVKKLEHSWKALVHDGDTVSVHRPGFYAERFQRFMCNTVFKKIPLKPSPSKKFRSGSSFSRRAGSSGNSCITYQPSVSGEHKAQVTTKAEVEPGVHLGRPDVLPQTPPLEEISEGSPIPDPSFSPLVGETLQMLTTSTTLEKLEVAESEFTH
UniProt Q06187: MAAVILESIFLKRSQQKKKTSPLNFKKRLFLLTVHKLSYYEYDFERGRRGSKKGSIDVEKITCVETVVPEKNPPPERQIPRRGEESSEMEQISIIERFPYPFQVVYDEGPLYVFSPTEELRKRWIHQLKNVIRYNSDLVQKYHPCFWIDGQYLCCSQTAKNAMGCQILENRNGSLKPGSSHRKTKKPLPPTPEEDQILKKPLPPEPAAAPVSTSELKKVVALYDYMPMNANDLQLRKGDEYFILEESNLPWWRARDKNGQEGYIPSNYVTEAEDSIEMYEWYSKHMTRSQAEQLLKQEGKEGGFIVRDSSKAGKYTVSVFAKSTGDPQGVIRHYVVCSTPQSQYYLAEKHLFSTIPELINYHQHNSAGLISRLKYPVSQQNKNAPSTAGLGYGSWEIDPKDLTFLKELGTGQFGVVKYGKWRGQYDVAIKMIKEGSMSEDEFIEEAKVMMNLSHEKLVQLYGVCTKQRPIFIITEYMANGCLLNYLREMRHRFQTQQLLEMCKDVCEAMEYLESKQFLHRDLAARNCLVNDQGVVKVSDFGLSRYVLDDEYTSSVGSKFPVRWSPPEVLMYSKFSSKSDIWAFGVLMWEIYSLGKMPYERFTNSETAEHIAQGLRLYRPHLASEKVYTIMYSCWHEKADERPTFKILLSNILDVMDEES

How the values were obtained:
[1] = molecular target: T1, Serine/threonine-protein kinase RIO1 (Homo sapiens) (UniProt Q9BRS2); test: Binding affinity to wild-type human full length RIOK1 (M1 to K568 residues) expressed in bacterial expression system at 1 uM by Kinomescan method relative to control
T1 sequence (whole entry): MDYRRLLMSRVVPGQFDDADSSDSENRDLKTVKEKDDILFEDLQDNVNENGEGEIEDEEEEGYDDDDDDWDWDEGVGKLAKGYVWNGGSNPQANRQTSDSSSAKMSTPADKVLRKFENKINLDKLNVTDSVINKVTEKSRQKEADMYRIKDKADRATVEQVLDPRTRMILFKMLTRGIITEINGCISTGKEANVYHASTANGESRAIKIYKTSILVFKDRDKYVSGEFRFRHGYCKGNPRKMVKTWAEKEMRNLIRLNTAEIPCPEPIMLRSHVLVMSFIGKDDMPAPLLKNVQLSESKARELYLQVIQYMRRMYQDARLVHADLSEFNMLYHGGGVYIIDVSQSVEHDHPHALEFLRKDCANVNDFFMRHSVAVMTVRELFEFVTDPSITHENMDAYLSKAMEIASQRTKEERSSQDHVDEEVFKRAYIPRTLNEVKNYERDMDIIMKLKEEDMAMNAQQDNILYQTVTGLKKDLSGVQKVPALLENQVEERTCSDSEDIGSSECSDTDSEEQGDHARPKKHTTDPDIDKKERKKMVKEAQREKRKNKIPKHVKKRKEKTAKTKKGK

[2] = molecular target: Serine/threonine-protein kinase RIO2 (Homo sapiens, UniProt Q9BVS4); test: Binding affinity to wild-type human partial length RIOK2 (M1 to D313 residues) expressed in mammalian expression system at 1 uM by Kinomescan method
[3] = molecular target: AP2-associated protein kinase 1 (Homo sapiens, UniProt Q2M2I8); test: Binding affinity to human wild-type AAK1 (G25 to L333 residues) expressed in bacterial expression system at 1 uM by Kinomescan method relative to control
[4] = molecular target: BMP-2-inducible protein kinase (Homo sapiens, UniProt Q9NSY1); test: Binding affinity to human wild-type BMP2K (S34 to N329 residues) expressed in bacterial expression system at 1 uM by Kinomescan method relative to control
[5] = molecular target: T2, Cyclin-dependent kinase-like 2 (Homo sapiens) (UniProt Q92772); test: Binding affinity to wild-type human partial length CDKL2 (M1 to D327 residues) expressed in bacterial expression system at 1 uM by Kinomescan method relative to control
T2 sequence (whole entry): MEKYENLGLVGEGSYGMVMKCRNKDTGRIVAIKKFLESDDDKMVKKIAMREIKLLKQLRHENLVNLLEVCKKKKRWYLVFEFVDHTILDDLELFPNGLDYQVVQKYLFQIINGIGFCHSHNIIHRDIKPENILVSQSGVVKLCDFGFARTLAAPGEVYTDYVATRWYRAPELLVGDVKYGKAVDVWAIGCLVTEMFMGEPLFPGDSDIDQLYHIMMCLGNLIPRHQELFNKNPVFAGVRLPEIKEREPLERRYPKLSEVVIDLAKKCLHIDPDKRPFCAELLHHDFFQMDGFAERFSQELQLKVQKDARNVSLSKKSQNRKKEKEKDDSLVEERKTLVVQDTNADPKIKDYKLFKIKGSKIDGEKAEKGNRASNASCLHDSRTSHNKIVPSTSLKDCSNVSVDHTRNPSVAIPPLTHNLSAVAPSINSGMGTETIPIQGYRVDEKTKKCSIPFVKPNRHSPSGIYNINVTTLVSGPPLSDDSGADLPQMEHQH

[6] = molecular target: Tyrosine-protein kinase JAK2 (Homo sapiens, UniProt O60674); test: Binding affinity to wild-type human partial length JAK2 JH1 catalytic domain (A829 to G1132 residues) expressed in mammalian expression system at 1 uM by Kinomescan method
[7] = molecular target: Phosphatidylinositol 4-phosphate 5-kinase type-1 alpha (Homo sapiens, UniProt Q99755); test: Binding affinity to wild-type human full length PIP5K1A (M1 to H562 residues) expressed in bacterial expression system at 1 uM by Kinomescan method relative to control
[8] = molecular target: T3, Mitogen-activated protein kinase kinase kinase 19 (Homo sapiens) (UniProt Q56UN5); test: Binding affinity to wild-type human partial length YSK4 (T1019 to H1328 residues) expressed in mammalian expression system at 1 uM by Kinomescan method relative to control
T3 sequence (whole entry): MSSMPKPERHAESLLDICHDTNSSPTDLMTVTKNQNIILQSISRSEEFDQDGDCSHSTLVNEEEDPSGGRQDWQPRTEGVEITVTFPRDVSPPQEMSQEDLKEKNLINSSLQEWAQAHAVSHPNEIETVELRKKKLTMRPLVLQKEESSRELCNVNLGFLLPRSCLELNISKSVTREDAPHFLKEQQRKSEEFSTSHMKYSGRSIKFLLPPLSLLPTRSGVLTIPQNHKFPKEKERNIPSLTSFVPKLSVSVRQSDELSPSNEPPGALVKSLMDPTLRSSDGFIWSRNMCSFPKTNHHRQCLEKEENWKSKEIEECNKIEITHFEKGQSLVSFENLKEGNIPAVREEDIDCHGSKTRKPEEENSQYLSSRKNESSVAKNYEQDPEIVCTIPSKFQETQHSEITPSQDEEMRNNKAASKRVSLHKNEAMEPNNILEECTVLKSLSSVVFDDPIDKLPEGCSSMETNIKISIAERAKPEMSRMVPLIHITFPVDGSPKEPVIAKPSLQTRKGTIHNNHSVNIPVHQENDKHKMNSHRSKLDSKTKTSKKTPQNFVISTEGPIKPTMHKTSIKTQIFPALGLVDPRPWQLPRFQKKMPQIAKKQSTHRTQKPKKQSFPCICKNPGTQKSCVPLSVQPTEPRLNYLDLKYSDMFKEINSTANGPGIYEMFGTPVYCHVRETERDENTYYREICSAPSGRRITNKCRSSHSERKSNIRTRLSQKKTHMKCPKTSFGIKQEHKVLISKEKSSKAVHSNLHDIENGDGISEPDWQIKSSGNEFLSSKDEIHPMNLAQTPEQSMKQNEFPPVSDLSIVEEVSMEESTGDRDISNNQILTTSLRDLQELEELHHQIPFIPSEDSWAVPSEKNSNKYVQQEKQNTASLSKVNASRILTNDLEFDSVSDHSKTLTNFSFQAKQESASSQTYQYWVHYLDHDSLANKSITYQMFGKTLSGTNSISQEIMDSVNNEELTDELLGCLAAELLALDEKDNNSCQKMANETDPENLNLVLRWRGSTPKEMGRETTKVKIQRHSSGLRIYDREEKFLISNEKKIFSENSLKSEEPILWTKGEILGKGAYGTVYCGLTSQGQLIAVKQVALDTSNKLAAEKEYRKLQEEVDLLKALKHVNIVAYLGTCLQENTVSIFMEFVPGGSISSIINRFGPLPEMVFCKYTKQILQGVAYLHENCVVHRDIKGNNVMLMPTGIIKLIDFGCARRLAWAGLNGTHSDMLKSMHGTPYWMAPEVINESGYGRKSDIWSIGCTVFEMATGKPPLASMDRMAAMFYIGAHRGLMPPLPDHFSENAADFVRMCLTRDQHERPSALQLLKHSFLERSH

[9] = molecular target: Tyrosine-protein kinase BTK (Homo sapiens, UniProt Q06187); test: Binding affinity to wild-type human full length BTK (M1 to S659 residues) expressed in mammalian expression system at 1 uM by Kinomescan method relative to control

Activity [1]: > 70%
Activity [2]: > 70%
Activity [3]: > 70%
Activity [4]: > 70%
Activity [5]: > 70%
Activity [6]: > 70%
Activity [7]: > 70%
Activity [8]: > 70%
Activity [9]: > 70%
Compound: Cc1cc(-c2ccnc(Nc3cnn(C)c3)n2)ccc1CNC(=O)N1CC(OC(C)C)C1
